Measurements from patent US9645138B2, “Method to evaluate the tissue targeting of a molecule of interest” (IMABIOTECH, priority 2013, dated 2017).

Experiment: MALDI mass spectrometry imaging of mouse kidney sections after oral co-administration (Example 1)

Cc1cc2c(s1)Nc1ccccc1N=C2N1CCN(C)CC1 [Olanzapine]
F2 (%) (mouse kidney target tissue T1, positive control 100% and negative control 0% by definition, listed as olanzapine): 27% | Mean normalized intensity per tissue T2 (mouse kidney, non target tissue T2 (renal cortex), oral 8 mg/kg, MALDI imaging): 0.117 | Mean normalized intensity per tissue T1 (mouse kidney, target tissue T1 (medulla), oral 8 mg/kg, MALDI imaging): 0.161
